Experimental data published in paper PMC7438500 (Nature Communications, 2020).
“Also recorded” adds a separate entry of the source.

Sequences of proteins named here, by UniProt entry; tags and fusion partners are left off.
UniProt Q92847, whole entry: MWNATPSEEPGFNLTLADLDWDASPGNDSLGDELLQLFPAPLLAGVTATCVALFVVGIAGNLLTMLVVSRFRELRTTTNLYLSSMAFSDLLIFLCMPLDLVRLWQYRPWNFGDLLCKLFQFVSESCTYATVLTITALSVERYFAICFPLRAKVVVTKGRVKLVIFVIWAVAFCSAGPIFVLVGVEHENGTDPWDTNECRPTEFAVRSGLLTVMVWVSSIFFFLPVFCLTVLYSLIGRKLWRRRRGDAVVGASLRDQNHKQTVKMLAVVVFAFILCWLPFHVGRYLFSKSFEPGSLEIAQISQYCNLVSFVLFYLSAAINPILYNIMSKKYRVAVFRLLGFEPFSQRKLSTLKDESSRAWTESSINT
UniProt Q92847, whole entry N188Q: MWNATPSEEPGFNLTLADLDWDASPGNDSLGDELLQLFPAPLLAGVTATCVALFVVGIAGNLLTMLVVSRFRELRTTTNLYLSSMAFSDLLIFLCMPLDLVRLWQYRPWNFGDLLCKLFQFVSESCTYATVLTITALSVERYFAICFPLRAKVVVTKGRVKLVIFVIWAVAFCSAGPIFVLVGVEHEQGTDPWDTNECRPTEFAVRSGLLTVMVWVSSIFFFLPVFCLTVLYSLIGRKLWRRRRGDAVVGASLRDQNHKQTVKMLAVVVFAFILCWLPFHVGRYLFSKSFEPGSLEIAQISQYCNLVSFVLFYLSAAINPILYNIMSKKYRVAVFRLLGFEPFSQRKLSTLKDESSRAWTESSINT

Tests used:
ghrelin receptor = molecular target: T1, ghrelin receptor (Homo sapiens, UniProt Q92847); assay: Radioligand binding of [125I]-ghrelin and [125I]-des-acyl ghrelin; settings: [125I]-des-acyl ghrelin; n=3
T1 construct: expressed in transfected cells; host or cells: HEK293 cells (membrane preparations, transient expression)

ghrelin receptor WT = ghrelin receptor WT (Homo sapiens, UniProt Q92847, N188Q); assay: Intracellular Ca2+ concentration assay, WT receptor in CHO cells; format: cell-based; design: Full-length human ghrelin receptor was used for the mutagenesis; expressed in transfected cells; host or cells: CHO cells
Method: The positions of mutated amino acids and primers are listed in Supplementary Table 2.
Transfections were performed using the FuGENE HD transfection reagent (Promega). The next day, the transfected cells were collected and plated into 96-well black-wall assay microplates (Corning) at a density of 3 × 10^4 cells/well. After a 1-day incubation, the cells were incubated for 1 h with 100 μl of calcium indicator Fluo-4 from the FLIPR Calcium 5 Assay Kit (Molecular Devices) in Hank’s BSS containing 20 mM HEPES-NaOH (pH7.5) and 2.5 mM probenecid. Fifty-microliter aliquots of samples were tested to induce changes in fluorescence due to increased calcium concentration on a FlexStation3 (Molecular Devices). Maximum [Ca^2+]i changes were determined in quadruplicate (n = 4).

des-acyl ghrelin
specific binding (ghrelin receptor): too low to calculate the specific bindings; also recorded: did not bind to the ghrelin receptor at all | activation of the ghrelin receptor (ghrelin receptor WT): unable to activate the ghrelin receptor
